Active and inactive are the calls of the source. The calls are words filed in the database; no cut-off is given here.
Legend:
[1] = molecular target: T1, Follicle-stimulating hormone receptor (Homo sapiens) (UniProt P23945); experiment: Agonist activity at human FSHR measured upto 100 uM by Discovery X assay; assay type: functional
T1 sequence (whole entry): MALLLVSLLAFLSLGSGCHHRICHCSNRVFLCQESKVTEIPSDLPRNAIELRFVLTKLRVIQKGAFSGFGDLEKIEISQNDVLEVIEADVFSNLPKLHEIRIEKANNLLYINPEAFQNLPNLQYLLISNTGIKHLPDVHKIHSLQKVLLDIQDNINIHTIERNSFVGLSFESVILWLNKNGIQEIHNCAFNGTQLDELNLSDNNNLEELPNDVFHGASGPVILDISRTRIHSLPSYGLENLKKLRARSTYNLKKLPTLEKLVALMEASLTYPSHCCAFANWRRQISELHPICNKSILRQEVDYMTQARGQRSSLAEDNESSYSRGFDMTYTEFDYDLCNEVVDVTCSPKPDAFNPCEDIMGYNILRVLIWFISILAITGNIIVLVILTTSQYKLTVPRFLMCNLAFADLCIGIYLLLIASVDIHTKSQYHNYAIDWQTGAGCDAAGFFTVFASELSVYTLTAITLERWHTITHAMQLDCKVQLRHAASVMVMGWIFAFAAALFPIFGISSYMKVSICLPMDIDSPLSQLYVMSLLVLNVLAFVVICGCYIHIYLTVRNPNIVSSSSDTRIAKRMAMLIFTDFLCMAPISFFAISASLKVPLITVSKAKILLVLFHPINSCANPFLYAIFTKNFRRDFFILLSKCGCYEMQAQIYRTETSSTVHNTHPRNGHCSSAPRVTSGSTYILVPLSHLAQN

[2] = molecular target: T2, Leucine-rich repeat-containing G-protein coupled receptor 6 (Homo sapiens) (UniProt Q9HBX8); experiment: Agonist activity at human LGR6 measured upto 100 uM by Discovery X assay
T2 sequence (whole entry): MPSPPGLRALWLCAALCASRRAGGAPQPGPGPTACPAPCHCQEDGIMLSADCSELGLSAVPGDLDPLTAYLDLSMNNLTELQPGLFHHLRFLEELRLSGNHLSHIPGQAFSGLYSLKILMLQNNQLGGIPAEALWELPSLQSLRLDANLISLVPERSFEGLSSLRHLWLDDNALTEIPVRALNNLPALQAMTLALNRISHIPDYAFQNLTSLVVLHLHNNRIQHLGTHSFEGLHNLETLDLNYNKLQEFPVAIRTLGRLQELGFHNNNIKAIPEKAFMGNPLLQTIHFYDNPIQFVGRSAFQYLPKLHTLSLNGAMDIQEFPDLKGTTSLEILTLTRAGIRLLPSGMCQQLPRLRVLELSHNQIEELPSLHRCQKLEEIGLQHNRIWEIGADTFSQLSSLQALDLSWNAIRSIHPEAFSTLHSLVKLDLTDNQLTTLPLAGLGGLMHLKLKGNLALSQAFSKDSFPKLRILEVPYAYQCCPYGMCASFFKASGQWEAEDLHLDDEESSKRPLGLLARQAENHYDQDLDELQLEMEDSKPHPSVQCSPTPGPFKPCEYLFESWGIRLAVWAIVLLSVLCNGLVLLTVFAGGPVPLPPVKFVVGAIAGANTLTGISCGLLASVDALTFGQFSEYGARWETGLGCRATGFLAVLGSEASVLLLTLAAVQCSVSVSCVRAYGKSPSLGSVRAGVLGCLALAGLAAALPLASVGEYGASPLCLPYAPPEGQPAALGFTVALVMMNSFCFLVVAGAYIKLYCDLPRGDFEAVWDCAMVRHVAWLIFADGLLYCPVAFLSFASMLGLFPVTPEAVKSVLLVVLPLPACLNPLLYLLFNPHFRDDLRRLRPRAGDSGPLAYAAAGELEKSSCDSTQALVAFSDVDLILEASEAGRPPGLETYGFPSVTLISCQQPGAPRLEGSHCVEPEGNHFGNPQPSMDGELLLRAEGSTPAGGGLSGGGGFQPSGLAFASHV

[3] = molecular target: T3, Leucine-rich repeat-containing G-protein coupled receptor 4 (Homo sapiens) (UniProt Q9BXB1); experiment: Agonist activity at human LGR4 measured upto 100 uM by Discovery X assay
T3 sequence (whole entry): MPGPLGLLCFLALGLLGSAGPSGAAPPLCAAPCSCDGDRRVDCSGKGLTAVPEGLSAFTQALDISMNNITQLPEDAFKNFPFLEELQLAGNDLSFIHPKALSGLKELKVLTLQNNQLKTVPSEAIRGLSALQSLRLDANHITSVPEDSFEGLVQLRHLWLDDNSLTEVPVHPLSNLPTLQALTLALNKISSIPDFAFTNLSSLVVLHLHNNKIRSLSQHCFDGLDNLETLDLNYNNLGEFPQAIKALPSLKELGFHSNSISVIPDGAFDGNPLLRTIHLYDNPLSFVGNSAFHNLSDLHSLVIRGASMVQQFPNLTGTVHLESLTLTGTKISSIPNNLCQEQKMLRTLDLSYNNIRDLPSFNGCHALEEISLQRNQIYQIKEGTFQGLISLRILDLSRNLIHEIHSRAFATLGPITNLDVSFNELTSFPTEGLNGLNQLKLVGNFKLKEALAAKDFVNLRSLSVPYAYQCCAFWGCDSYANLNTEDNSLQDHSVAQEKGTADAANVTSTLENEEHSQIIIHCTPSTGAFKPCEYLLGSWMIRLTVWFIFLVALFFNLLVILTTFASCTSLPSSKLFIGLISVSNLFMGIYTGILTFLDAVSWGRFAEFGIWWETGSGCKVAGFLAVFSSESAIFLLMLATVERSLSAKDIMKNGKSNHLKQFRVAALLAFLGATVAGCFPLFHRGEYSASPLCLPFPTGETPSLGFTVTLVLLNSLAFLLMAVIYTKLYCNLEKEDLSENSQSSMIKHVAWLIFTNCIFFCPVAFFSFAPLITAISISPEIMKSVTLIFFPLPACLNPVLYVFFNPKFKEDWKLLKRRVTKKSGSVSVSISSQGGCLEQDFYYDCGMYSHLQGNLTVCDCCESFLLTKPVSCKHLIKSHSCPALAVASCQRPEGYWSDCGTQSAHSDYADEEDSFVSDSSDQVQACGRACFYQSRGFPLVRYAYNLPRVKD

[4] = molecular target: T4, Leucine-rich repeat-containing G-protein coupled receptor 5 (Homo sapiens) (UniProt O75473); experiment: Agonist activity at human LGR5 measured upto 100 uM by Discovery X assay
T4 sequence (whole entry): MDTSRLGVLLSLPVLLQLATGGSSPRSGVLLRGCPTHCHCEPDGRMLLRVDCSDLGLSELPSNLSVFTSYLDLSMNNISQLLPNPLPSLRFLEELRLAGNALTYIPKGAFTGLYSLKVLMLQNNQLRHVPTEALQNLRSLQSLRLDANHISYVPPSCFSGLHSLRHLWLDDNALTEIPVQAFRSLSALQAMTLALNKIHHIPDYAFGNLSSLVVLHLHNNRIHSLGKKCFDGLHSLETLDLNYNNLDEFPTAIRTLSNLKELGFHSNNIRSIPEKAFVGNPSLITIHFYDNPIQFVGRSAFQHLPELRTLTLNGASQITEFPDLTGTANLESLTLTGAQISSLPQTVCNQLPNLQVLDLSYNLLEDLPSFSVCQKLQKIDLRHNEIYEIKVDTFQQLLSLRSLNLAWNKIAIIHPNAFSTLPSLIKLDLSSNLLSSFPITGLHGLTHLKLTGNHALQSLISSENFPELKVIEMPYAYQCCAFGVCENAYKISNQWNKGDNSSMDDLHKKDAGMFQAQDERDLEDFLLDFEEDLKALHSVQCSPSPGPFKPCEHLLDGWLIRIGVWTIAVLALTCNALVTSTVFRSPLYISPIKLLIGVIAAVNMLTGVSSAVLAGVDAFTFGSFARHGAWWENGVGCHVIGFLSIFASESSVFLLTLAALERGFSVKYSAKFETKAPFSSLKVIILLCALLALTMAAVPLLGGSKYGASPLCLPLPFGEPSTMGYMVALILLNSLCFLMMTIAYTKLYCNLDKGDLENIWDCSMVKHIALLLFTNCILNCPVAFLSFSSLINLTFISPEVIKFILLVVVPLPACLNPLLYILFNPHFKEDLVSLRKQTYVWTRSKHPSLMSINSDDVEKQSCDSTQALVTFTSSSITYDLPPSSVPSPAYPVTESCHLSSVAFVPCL

Activity [1] | Activity [2] | Activity [3] | Activity [4] | SMILES
inactive | inactive | inactive | inactive | COc1cc(F)c(O[C@H]2CC[C@@](C)(C(=O)O)CC2)cc1C(=O)N[C@H]1[C@@H]2CC[C@@H](C2)[C@H]1C(=O)NCC1(C)CCC1
inactive | inactive | inactive | inactive | COc1cc(F)c(O[C@H]2CC[C@@](C)(C(=O)O)CC2)cc1C(=O)N[C@@H]1[C@H]2CC[C@H](C2)[C@@H]1C(=O)NCC1(C)CCC1

Source: ChEMBL document CHEMBL5518236, “Discovery of Clinical Candidate AZD5462, a Selective Oral Allosteric RXFP1 Agonist for Treatment of Heart Failure” (J Med Chem, 2024)
